Source: US4818770A, “Prevention of a plant disease by specific inhibition of fungal polyamine biosynthesis” (priority 1986, dated 1989)

System: Colletotrichum lagenarium
Experiment: Infection of National Pickling cucumber plants by cucumber anthracnose
Settings: 1.0-10.0 mM

SMILES	reduction of infection of cucumber plants
NCCCC(N)(C(=O)O)C(F)F (racemic) [DFMO, DL-alpha-difluorimethylornithine]	Neither DFMO, DFMA, nor their combination, reduced the infection
N=C(N)NCCC[C@](N)(C(=O)O)C(F)F [DFMA, alpha-difluoromethylarginine]	Neither DFMO, DFMA, nor their combination, reduced the infection
